Reference: patent US8524696B2, “Water-soluble compositions of bioactive lipophilic compounds” (priority 1999, dated 2013)

What was measured:
[1] = tested on: neuroblastoma NT2 cell cultures; conditions: NT2 cells; final concentration in the medium up to 200 mg/ml
[2] = tested on: lymphocytic Jurkat cell cultures; conditions: Jurkat cells; final concentration in the medium up to 200 mg/ml

With “polyoxyethanyl-α-tocopheryl succinate [TPGS]” the “adverse effects on cell growth or viability” value [1] was “toxicity” and the “adverse effects on cell growth or viability” value [2] was “toxicity”.
